## Antibody variant affinities, Ab-91 heavy chain, assay 2

Target: peptide PDVDLGDISGINAS, taken from heptad repeat 2 (HR2) of SARS-CoV-2 spike.

Each scFv is VL, a (GGGGS)3 linker, VH, as in the parent Ab-91, and differs from it in the CDRs of the heavy chain only.
VL: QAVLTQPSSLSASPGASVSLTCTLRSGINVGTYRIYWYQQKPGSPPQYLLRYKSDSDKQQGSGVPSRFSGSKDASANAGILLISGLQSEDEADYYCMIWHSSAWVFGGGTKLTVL
VH: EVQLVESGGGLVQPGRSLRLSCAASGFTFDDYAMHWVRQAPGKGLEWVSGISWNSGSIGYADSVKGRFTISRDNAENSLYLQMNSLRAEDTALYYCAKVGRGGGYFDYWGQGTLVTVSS

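Phage display of a naive human antibody library on the peptide gave the parent. AAYL51 was designed without a model: most single CDR substitutions and a random sample of double and triple ones. In AlphaSeq, yeast of one mating type display the scFv and yeast of the other type display the target. After mating in shaken culture at 30 °C for 16 h, diploids were selected and their barcode pairs sequenced. A regression on co-assayed BCL2-family reference pairs converts the normalised counts of each replicate to an apparent Kd. The assay was run in three technical replicates.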

Positions count from residue 1 of the parent VH; F27V puts V in place of F. The read-out is the apparent dissociation constant on a log10 scale (nM): the lower, the stronger. "nd" means that the variant was in the library but no mating with the target was seen in that replicate; the authors take this as a sign of poor binding, and no number exists.

{"changes": "F27V+D31H+Y108G", "log10 Kd (nM) by replicate": "0.84 0.87 0.27", "signal with controls": "1 of 9 (3.36)"}
{"changes": "T28P+K65M+F106M", "log10 Kd (nM) by replicate": "nd nd nd", "signal with controls": "0 of 9"}
{"changes": "G26S+F27C+Y60T", "log10 Kd (nM) by replicate": "nd 4.66 4.64", "signal with controls": "2 of 9 (4.55)"}
{"changes": "N54F+F106C", "log10 Kd (nM) by replicate": "4.74 nd nd", "signal with controls": "2 of 9 (4.94)"}
{"changes": "H35K+S63E", "log10 Kd (nM) by replicate": "nd nd nd", "signal with controls": "1 of 9 (3.60)"}
{"changes": "S57P+Y60I+S63C", "log10 Kd (nM) by replicate": "5.35 5.36 nd", "signal with controls": "2 of 9 (4.44)"}
{"changes": "A33Q+H35S+I58H", "log10 Kd (nM) by replicate": "nd nd nd", "signal with controls": "1 of 9 (3.05)"}
{"changes": "H35E+S55H+F106T", "log10 Kd (nM) by replicate": "nd nd nd", "signal with controls": "2 of 9 (3.94)"}
{"changes": "T28V+D30M+G102E", "log10 Kd (nM) by replicate": "1.73 1.82 1.46", "signal with controls": "2 of 9 (4.85)"}
{"changes": "A33S+Y60R+V64N", "log10 Kd (nM) by replicate": "4.85 6.04 nd", "signal with controls": "4 of 9 (4.99)"}
{"changes": "Y60G+V64S+R101N", "log10 Kd (nM) by replicate": "nd nd nd", "signal with controls": "0 of 9"}
{"changes": "W53P+K65G+G104F", "log10 Kd (nM) by replicate": "1.26 1.23 0.36", "signal with controls": "7 of 9 (4.78)"}
{"changes": "F27N+S52G+Y105V", "log10 Kd (nM) by replicate": "nd nd nd", "signal with controls": "0 of 9"}
{"changes": "G26R+F27E+G102C", "log10 Kd (nM) by replicate": "5.88 nd nd", "signal with controls": "4 of 9 (4.30)"}
{"changes": "T28E+N54P+Y108C", "log10 Kd (nM) by replicate": "nd nd nd", "signal with controls": "1 of 9 (5.75)"}
{"changes": "V99A+G100F+F106D", "log10 Kd (nM) by replicate": "3.33 3.97 2.83", "signal with controls": "1 of 9 (4.07)"}
{"changes": "G26A+T28D+W53S", "log10 Kd (nM) by replicate": "2.61 2.78 3.39", "signal with controls": "0 of 9"}
{"changes": "G50C+V64H", "log10 Kd (nM) by replicate": "5.42 4.00 5.73", "signal with controls": "4 of 9 (4.95)"}

Picked from the list: the 2 lowest averages where every replicate gave a value.

| changes | log10 Kd (nM) by replicate | signal with controls |
|---|---|---|
| F27V+D31H+Y108G | 0.84 0.87 0.27 | 1 of 9 (3.36) |
| W53P+K65G+G104F | 1.26 1.23 0.36 | 7 of 9 (4.78) |

Empty control strains, which show no peptide, gave a signal in 21% of pairings with library AAYL51; the median was 4.54 and 95% of these signals were weaker than 3.26. No background was subtracted. Also given: how often the same scFv was detected with the empty control strains, with their mean in brackets.

Values reported by Engelhart et al. 2022, doi:10.1038/s41597-022-01779-4 (FLAb copy).